Literature values as cited in patent publication US20240000899A1, “THERAPEUTIC USEFUL AGAINST ANTIMICROBIAL RESISTANT AGENTS” (priority 2022, published 2024).

Conditions: deep lung, Dahl 1983; cited from earlier work

O=S(=O)(O)O [sulfuric acid]
time in which the acid anion is absorbed: 2 to 3 min
